This is an account of results in US20050042205A1.

This assay concerns the target rat testicular FSH receptor (FSH-R) expressed from the cloned cDNA (expression vector pCFSH-R) in transiently transfected human embryonic kidney 293 cells (rat) (UniProt P20395).

Turning to “oFSH, highly purified (NIDDK-oFSH-17; 20 U/mg) (from UniProt P01218) (ligand)”, the cAMP (pmoles/10^6 cells) at 25 nM hormone (pmoles/10^6 cells) came out at 700.
